Measurements: paper PMC8749467, “A new ALK inhibitor overcomes resistance to first‐ and second‐generation inhibitors in NSCLC” (EMBO Molecular Medicine, 2021)

System: H3122 xenograft tumors
Conditions: 50 mg/kg once daily, 11 days

For C[C@@H](Oc1cc(-c2cnn(C3CCNCC3)c2)cnc1N)c1c(Cl)ccc(F)c1Cl [Crizotinib, crizotinib], the tumor growth was “tumor growth inhibition”.
